This note sets out measurements from patent US9403839B2, “Pyran-spirocyclic piperidine amides as modulators of ion channels” (Vertex Pharmaceuticals Incorporated, priority 2012, dated 2016).

Amino acid sequences for entries named in this document (tags omitted).
UniProt Q15858, whole entry: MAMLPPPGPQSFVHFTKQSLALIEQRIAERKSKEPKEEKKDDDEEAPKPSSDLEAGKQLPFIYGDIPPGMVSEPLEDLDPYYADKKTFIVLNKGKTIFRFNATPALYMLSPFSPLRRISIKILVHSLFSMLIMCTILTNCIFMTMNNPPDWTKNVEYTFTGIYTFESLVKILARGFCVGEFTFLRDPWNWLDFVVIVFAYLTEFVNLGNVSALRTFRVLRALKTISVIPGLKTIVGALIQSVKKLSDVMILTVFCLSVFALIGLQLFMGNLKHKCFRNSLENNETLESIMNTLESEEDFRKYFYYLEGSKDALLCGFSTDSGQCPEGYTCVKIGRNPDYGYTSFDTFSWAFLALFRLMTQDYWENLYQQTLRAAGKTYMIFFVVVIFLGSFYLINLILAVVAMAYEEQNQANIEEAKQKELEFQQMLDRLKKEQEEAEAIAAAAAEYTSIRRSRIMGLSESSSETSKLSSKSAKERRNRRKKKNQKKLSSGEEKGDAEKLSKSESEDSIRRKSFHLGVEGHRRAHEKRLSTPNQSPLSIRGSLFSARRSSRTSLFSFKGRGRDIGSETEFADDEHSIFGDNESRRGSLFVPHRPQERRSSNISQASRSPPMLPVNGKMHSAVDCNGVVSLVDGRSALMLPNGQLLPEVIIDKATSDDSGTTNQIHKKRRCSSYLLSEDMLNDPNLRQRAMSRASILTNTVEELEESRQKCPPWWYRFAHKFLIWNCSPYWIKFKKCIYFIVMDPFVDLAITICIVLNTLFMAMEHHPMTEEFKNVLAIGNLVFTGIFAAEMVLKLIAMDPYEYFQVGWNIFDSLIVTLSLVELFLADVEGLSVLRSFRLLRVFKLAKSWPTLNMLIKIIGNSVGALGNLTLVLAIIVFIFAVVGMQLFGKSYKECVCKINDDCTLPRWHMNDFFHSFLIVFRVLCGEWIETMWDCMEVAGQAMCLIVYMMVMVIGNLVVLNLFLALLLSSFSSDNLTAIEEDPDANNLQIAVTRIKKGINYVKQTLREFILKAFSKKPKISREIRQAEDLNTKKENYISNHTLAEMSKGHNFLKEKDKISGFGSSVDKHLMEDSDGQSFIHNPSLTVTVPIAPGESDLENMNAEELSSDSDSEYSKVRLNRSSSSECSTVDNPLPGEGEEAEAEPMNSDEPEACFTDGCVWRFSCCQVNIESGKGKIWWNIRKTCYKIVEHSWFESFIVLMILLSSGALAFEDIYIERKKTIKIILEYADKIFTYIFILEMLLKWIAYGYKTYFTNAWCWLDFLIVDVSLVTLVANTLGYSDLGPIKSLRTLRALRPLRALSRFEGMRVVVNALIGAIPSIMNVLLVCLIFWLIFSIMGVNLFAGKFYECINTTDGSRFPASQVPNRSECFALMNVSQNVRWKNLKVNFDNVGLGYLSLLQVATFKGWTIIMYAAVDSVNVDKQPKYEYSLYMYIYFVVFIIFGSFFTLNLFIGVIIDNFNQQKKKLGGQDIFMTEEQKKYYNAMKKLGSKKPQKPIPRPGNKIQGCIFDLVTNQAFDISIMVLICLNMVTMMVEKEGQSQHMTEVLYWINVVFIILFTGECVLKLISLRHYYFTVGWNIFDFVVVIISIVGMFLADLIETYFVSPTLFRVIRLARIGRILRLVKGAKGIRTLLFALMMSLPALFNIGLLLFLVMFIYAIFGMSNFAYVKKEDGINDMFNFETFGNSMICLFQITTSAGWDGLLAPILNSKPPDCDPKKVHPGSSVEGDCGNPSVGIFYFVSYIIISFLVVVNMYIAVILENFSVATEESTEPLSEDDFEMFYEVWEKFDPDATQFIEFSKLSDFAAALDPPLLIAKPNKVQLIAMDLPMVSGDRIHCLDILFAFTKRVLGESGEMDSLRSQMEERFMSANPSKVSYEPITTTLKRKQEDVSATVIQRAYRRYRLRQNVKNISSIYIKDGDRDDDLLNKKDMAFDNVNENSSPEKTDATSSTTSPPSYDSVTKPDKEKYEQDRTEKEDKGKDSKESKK

This assay concerns the target human NaV subtype, like NaV 1.7 (Homo sapiens, UniProt Q15858). In words: E-VIPR optical membrane potential assay with electrical stimulation. The following applies: read-out: IC50 Binned Activity Data; one or more sodium channels; assay and NaV subtype not specified for Table 3. The text has this: Assays for Detecting and Measuring NaV Inhibition Properties of Compound E-VIPR Optical Membrane Potential Assay Method with Electrical Stimulation
Sodium channels are voltage-dependent proteins that can be activated by inducing membrane voltage changes by applying electric fields. The electrical stimulation instrument and methods of use are described in Ion Channel Assay Methods PCT/US01/21652, herein incorporated by reference and are referred to as E-VIPR. The instrument comprises a microtiter plate handler, an optical system for exciting the coumarin dye while simultaneously recording the coumarin and oxonol emissions, a waveform generator, a current- or voltage-controlled amplifier, and a device for inserting electrodes in well. Under integrated computer control, this instrument passes user-programmed electrical stimulus protocols to cells within the wells of the microtiter plate.
24 hours before the assay on E-VIPR, HEK cells expressing human NaV subtype, like NaV 1.7, are seeded in 384-well poly-lysine coated plates at 15,000-20,000 cells per well. Other subtypes are performed in an analogous mode in a cell line expressing the NaV of interest. HEK cells are grown in media (exact composition is specific to each cell type and NaV subtype) supplemented with 10% FBS (Fetal Bovine Serum, qualified; GibcoBRL #16140-071) and 1% Pen-Strep (Penicillin-Streptomycin; GibcoBRL #15140-122). Cells are grown in vented cap flasks, in 90% humidity and 10% CO2, to 100% confluence. They are usually split by trypsinization 1:10 or 1:20, depending on scheduling needs, and grown for 2-3 days before the next split.
100 mg/mL Pluronic F-127 (Sigma #P2443), in dry DMSO
Compound Plates: 384-well round bottom plate, e.g. Corning 384-well Polypropylene Round Bottom #3656
Cell Plates: 384-well tissue culture treated plate, e.g. Greiner #781091-1B
Bath1 buffer. Glucose 10 mM (1.8 g/L), Magnesium Chloride (Anhydrous), 1 mM (0.095 g/L), Calcium Chloride, 2 mM (0.222 g/L), HEPES 10 mM (2.38 g/L), Potassium Chloride, 4.5 mM (0.335 g/L), Sodium Chloride 160 mM (9.35 g/L).
Hexyl Dye Solution: Bath1 Buffer+0.5% β-cyclodextrin (make this prior to use, Sigma #C4767), 8 μM CC2-DMPE+2.5 μM DiSBAC6(3). To make the solution Add volume of 10% Pluronic F127 stock equal to volumes of CC2-DMPE+DiSBAC6(3). The order of preparation is first mix Pluronic and CC2-DMPE, then add DiSBAC6(3) while vortexing, then add Bath1+β-Cyclodextrin.
1) Pre-spot compounds (in neat DMSO) into compound plates. Vehicle control (neat DMSO), the positive control (20 mM DMSO stock tetracaine, 125 μM final in assay) and test compounds are added to each well at 160× desired final concentration in neat DMSO. Final compound plate volume will be 80 μL (80-fold intermediate dilution from 1 μL DMSO spot; 160-fold final dilution after transfer to cell plate). Final DMSO concentration for all wells in assay is 0.625%.
2) Prepare Hexyl Dye Solution.
3) Prepare cell plates. On the day of the assay, medium is aspirated and cells are washed three times with 100 μL of Bath1 Solution, maintaining 25 μL residual volume in each well.
4) Dispense 25 μL per well of Hexyl Dye Solution into cell plates. Incubate for 20-35 minutes at room temp or ambient conditions.
5) Dispense 80 μL per well of Bath1 into compound plates. Acid Yellow-17 (1 mM) is added and Potassium Chloride can be altered from 4.5 to 20 mM depending on the NaV subtype and assay sensitivity.
6) Wash cell plates three times with 100 μL per well of Bath1, leaving 25 of residual volume. Then transfer 25 uL per well from Compound Plates to Cell Plates. Incubate for 20-35 minutes at room temp/ambient condition
7) Read Plate on E-VIPR. Use the current-controlled amplifier to deliver stimulation wave pulses for typically 9 seconds and a scan rate of 400 Hz. A pre-stimulus recording is performed for 0.5 seconds to obtain the un-stimulated intensities baseline. […]

Where only a bound is given, the exact number is not on record here.

What is called IC50 is the concentration needed to halve the response being measured. Regarding `CCOC1CC(c2ccccc2)OC2(CCN(C(=O)c3cc(-c4ccccc4)nn3C)CC2)C1` (stereo not drawn), the IC50 is 2 to 5 µM.

Consider `CCOC1CC(c2cccnc2)OC2(CCN(C(=O)c3ccc(OC(C)C)c(F)c3)CC2)C1` (stereo not drawn), for which the IC50 fell in the range of 2 to 5 µM. With `CCOC1CC(c2ccccc2)OC2(CCN(C(=O)c3cc(C)c(OC)c(C)c3)CC2)C1` (stereo not drawn), the 50% inhibitory concentration (IC50) was less than 2 µM. Regarding `CCOC1CC(c2ccccc2)OC2(CCN(C(=O)c3cccc(OC(F)F)c3)CC2)C1` (stereo not drawn), the IC50 lay in the range of 2 to 5 µM.

With `CCOC1CC(c2cncc(F)c2)OC2(CCN(C(=O)c3ccc(OC(C)C)c(C)c3)CC2)C1` (stereo not drawn), the 50% inhibitory concentration (IC50) was less than 2 µM. With `CCOC1CC(c2ccccc2)OC2(CCN(C(=O)c3cc(C4CC4)nn3C(C)(C)C)CC2)C1` (stereo not drawn) the figure was 2 to 5 µM; with `CCOC1CC(c2ccccc2)OC2(CCN(C(=O)c3cnn(-c4ccc(F)cc4)c3C)CC2)C1` (stereo not drawn), less than 2 µM.

For the compound `CCOC1CC(c2ccccc2)OC2(CCN(C(=O)c3cccnc3N3CCCC3)CC2)C1` (stereo not drawn), the IC50 is greater than 5 µM. Consider `CCOC1CC(c2ccccc2)OC2(CCN(C(=O)c3ccc(OC(F)F)cc3)CC2)C1` (stereo not drawn), for which the IC50 was less than 2 µM. With `CCOC1CC(c2ccccc2)OC2(CCN(C(=O)c3ccc(OC)cc3C(F)(F)F)CC2)C1` (stereo not drawn) the figure was 2 to 5 µM; with `CCOC1CC(c2ccccc2)OC2(CCN(C(=O)c3ccc(C4CC4)cc3)CC2)C1` (stereo not drawn), less than 2 µM. As for `CCOC1CC(c2ccccc2)OC2(CCN(C(=O)c3cc4ccccc4o3)CC2)C1` (stereo not drawn), the figure is 2 to 5 µM; as for `CCOC1CC(c2ccccn2)OC2(CCN(C(=O)c3ccc(OC(C)C)c(OC)c3)CC2)C1` (stereo not drawn), greater than 5 µM. For `CCOC1CC(c2ccccc2)OC2(CCN(C(=O)c3ccc(OCC(F)(F)F)cc3)CC2)C1` (stereo not drawn), the concentration for half-maximal inhibition (IC50) is less than 2 µM. For `CCOC1CC(c2ccccc2)OC2(CCN(C(=O)c3cn4ccc(C)cc4n3)CC2)C1` (stereo not drawn), the IC50 was less than 2 µM.

On to `CCOC1CC(c2ccccc2)OC2(CCN(C(=O)c3ccc(S(=O)(=O)C(C)C)cc3)CC2)C1` (stereo not drawn), for which the IC50 lay in the range of 2 to 5 µM. With `CCOC1CC(c2ccccc2)OC2(CCN(C(=O)c3ccc(OC(C)C)c(OC)c3)CC2)C1` (stereo not drawn) the figure was greater than 5 µM; with `CCOC1CC(c2ccccc2)OC2(CCN(C(=O)c3ccc4ccccc4n3)CC2)C1` (stereo not drawn), less than 2 µM.

Take `CCOc1ncccc1C(=O)N1CCC2(CC1)CC(OCC)CC(c1ccccc1)O2` (stereo not drawn): the half-inhibitory concentration (IC50) is less than 2 µM. With `CCOC1CC(c2ccccc2)OC2(CCN(C(=O)c3ccc(COCCC(F)(F)F)cc3)CC2)C1` (stereo not drawn) the figure was less than 2 µM; with `CCOC1CC(c2ccccc2)OC2(CCN(C(=O)c3ccc(N4CCCC4)cn3)CC2)C1` (stereo not drawn), less than 2 µM; with `CCOC1CC(c2ccccc2)OC2(CCN(C(=O)c3ccc(S(=O)(=O)NC4CC4)cc3)CC2)C1` (stereo not drawn), less than 2 µM.

Consider `CCOC1CC(c2ccccc2)OC2(CCN(C(=O)c3ccc(S(=O)(=O)CC)cc3)CC2)C1` (stereo not drawn), for which the IC50 is less than 2 µM. As for `CCOC1CC(c2ccccc2)OC2(CCN(C(=O)c3ccc(S(C)(=O)=O)cc3Cl)CC2)C1` (stereo not drawn), the figure is 2 to 5 µM; as for `CCOC1CC(c2ccccc2)OC2(CCN(C(=O)c3cnn(-c4ccccc4)c3C)CC2)C1` (stereo not drawn), less than 2 µM. As for `CCOC1CC(c2ccc(F)cc2)OC2(CCN(C(=O)c3ccc(S(=O)(=O)C(C)C)c(C#N)c3)CC2)C1` (stereo not drawn), the figure is greater than 5 µM; as for `CCOC1CC(c2ccncc2)OC2(CCN(C(=O)c3ccc(OC(C)C)c(C)c3)CC2)C1` (stereo not drawn), less than 2 µM.

In the case of `CCC1CC(c2cccnc2)OC2(CCN(C(=O)c3ccc(OC(C)C)c(C)c3)CC2)C1` (stereo not drawn), the IC50 is less than 2 µM. With `CCOC1CC(c2ccccc2)OC2(CCN(C(=O)c3ccccc3OC(F)F)CC2)C1` (stereo not drawn) the figure was less than 2 µM. As for `CCOC1CC(c2ccc(F)cc2)OC2(CCN(C(=O)c3ccc(OC(C)C)c(OC)c3)CC2)C1` (stereo not drawn), the figure is less than 2 µM. With `CCOC1CC(c2cccnc2)OC2(CCN(C(=O)c3ccc(S(=O)(=O)C(F)F)cc3)CC2)C1` (stereo not drawn) the figure was greater than 5 µM. As for `CCOC1CC(c2ccccc2)OC2(CCN(C(=O)c3ccc4ncccc4c3)CC2)C1` (stereo not drawn), the concentration for half-maximal inhibition (IC50) is greater than 5 µM.

Regarding `CCOC1CC(c2ccccc2)OC2(CCN(C(=O)c3cnc(OC(C)C)c(C)c3)CC2)C1` (stereo not drawn), the concentration for half-maximal inhibition (IC50) is less than 2 µM. As for `CCOC1CC(c2ccccc2)OC2(CCN(C(=O)c3cccnc3N(C)C)CC2)C1` (stereo not drawn), the figure is greater than 5 µM.

For the compound `CCCOC1CC(c2ccnn2C)OC2(CCN(C(=O)c3ccc(OC(C)C)c(C)c3)CC2)C1` (stereo not drawn), the half-maximal inhibitory concentration (IC50) is less than 2 µM.

`CCOC1CC(c2ccccc2)OC2(CCN(C(=O)c3ccc(OCCOC)c(OC)c3)CC2)C1` (stereo not drawn): the IC50 was less than 2 µM. With `CCOC1CC(c2ccccc2)OC2(CCN(C(=O)c3cc(OC)c4ccccc4n3)CC2)C1` (stereo not drawn), the half-inhibitory concentration (IC50) is less than 2 µM.

For the compound `CCOC1CC(c2ccccc2)OC2(CCN(C(=O)c3ccc(OC(C)C)nc3)CC2)C1` (stereo not drawn), the IC50 was less than 2 µM. As for `CCOC1CC(c2ccccc2)OC2(CCN(C(=O)c3ccc(OC)cc3OC)CC2)C1` (stereo not drawn), the figure is less than 2 µM; as for `Cc1cc(C(=O)N2CCC3(CC2)CC(OC(C)C)CC(c2cccnc2)O3)ccc1OC(C)C` (stereo not drawn), less than 2 µM. With `CCOC1CC(c2ccccc2)OC2(CCN(C(=O)c3cc(F)ccc3OC)CC2)C1` (stereo not drawn) the figure was 2 to 5 µM; with `CCOC1CC(c2ccccc2)OC2(CCN(C(=O)c3cccc(OC)n3)CC2)C1` (stereo not drawn), 2 to 5 µM. `CCOC1CC(c2ccc(F)cc2)OC2(CCN(C(=O)c3ccc(C(C)(C)O)c(F)c3)CC2)C1` (stereo not drawn): the IC50 is less than 2 µM. With `CCOC1CC(c2ccccc2)OC2(CCN(C(=O)c3ccc(OC(C)C)c(F)c3)CC2)C1` (stereo not drawn) the figure was greater than 5 µM. With `CCOC1CC(c2ccccc2)OC2(CCN(C(=O)c3ccccc3N3CCOCC3)CC2)C1` (stereo not drawn) the figure was greater than 5 µM. As for `CCOC1CC(c2cccnc2)OC2(CCN(C(=O)c3ccc(OC(C)C)c(OC)n3)CC2)C1` (stereo not drawn), the figure is 2 to 5 µM. Consider `CCOc1ccc(C(=O)N2CCC3(CC2)CC(OCC)CC(c2ccccc2)O3)nc1` (stereo not drawn), for which the half-inhibitory concentration (IC50) was less than 2 µM. Turning to `CCOC1CC(c2cccc(F)c2)OC2(CCN(C(=O)c3ccc(OC(C)C)c(OC)c3)CC2)C1` (stereo not drawn), the IC50 is less than 2 µM. With `CCCOC1CC(c2cccnc2)OC2(CCN(C(=O)c3ccc(OC(C)C)c(C)c3)CC2)C1` (stereo not drawn) the figure was less than 2 µM. Turning to `CCOC1CC(c2ccccc2)OC2(CCN(C(=O)c3cc(OC)ccc3F)CC2)C1` (stereo not drawn), the 50% inhibitory concentration (IC50) is greater than 5 µM. With `CCOC1CC(c2ccccc2)OC2(CCN(C(=O)c3ccc(S(=O)(=O)NC)cc3)CC2)C1` (stereo not drawn) the figure was 2 to 5 µM; with `CCOC1CC(c2ccccc2)OC2(CCN(C(=O)c3ccc(S(=O)(=O)C(C)C)c(C)c3)CC2)C1` (stereo not drawn), less than 2 µM. With `CCCOc1ccc(C(=O)N2CCC3(CC2)CC(OCC)CC(c2ccccc2)O3)cc1OC` (stereo not drawn) the figure was less than 2 µM. With `CCOC1CC(c2ccccc2)OC2(CCN(C(=O)c3ccccc3C(F)F)CC2)C1` (stereo not drawn) the figure was greater than 5 µM; with `CCOC1CC(c2ccccc2)OC2(CCN(C(=O)c3ccc(F)cc3Cl)CC2)C1` (stereo not drawn), 2 to 5 µM. `CCOC1CC(c2ccccc2)OC2(CCN(C(=O)c3ccc(OC)c(Cl)c3)CC2)C1` (stereo not drawn): the IC50 is less than 2 µM. With `CCOC1CC(c2cccnc2)OC2(CCN(C(=O)c3ccc(COCC(F)(F)F)cc3)CC2)C1` (stereo not drawn) the figure was 2 to 5 µM; with `CCOC1CC(c2ccccc2)OC2(CCN(C(=O)c3ccc(N4CCOCC4)c(C)c3)CC2)C1` (stereo not drawn), less than 2 µM; with `CCOC1CC(c2ccccc2)OC2(CCN(C(=O)c3cc(OC)c(C)c(OC)c3)CC2)C1` (stereo not drawn), greater than 5 µM. Turning to `CCOC1CC(c2cccnc2)OC2(CCN(C(=O)c3ccc(OC(C)C)c(C)c3)CC2)C1` (single isomer, unassigned) [147], the half-maximal inhibitory concentration (IC50) is greater than 5 µM.
